In ChEMBL document CHEMBL5576047, “Synthesis of a new 2-prenylated quinoline as potential drug for metabolic syndrome with pan-PPAR activity and anti-inflammatory effects” (Bioorg Med Chem Lett, 2024):
Active and inactive are the calls of the source.

Legend:
Type in all cases: functional, cell-based
THP-1 [1] = assay: Antiinflammatory activity in LPS-induced human THP-1 cells assessed as reduction in LPS-induced CCL2 mRNA expression at 10 uM preincubated for 1 hr followed by LPS stimulation and measured after 4 hrs by RT-qPCR analysis; details: time 5.0 hrs
THP-1 [2] = assay: Antiinflammatory activity in LPS-induced human THP-1 cells assessed as reduction in LPS-induced CCL2 mRNA expression at 10 uM preincubated for 1 hr followed by LPS stimulation and measured after 24 hrs by RT-qPCR analysis; details: time 25.0 hrs
THP-1 [3] = assay: Antiinflammatory activity in LPS-induced human THP-1 cells assessed as reduction in LPS-induced IL-6 mRNA expression at 10 uM preincubated for 1 hr followed by LPS stimulation and measured after 24 hrs by RT-qPCR analysis; details: time 25.0 hrs

Measured: Activity

CCOC(=O)CC/C(C)=C/CCc1ccc2cc(OCc3ccccc3)ccc2n1
active: all assays above
